Data set [1] can be described thus: Biodegradability, closed bottle test OECD Test 301D. Conditions: after 28 days.
The test system of data set [2] is Lolium rigidum. In words: Greenhouse test of glyphosate/adjuvant formulations with Lolium rigidum. In kind it is in vivo. Conditions: Example 3, Table 8, glyphosate/adjuvant 2:1, 4 weeks after spraying.
For data set [3], the system named is Brassica napus. Briefly: Greenhouse test of glyphosate/adjuvant formulations with Brassica napus. In kind it is in vivo. The note with it: Example 3, Table 7, glyphosate/adjuvant 2:1, 4 weeks after spraying.
In data set [4] the test system is Elymus repens. Briefly: Greenhouse test of glyphosate/adjuvant formulations with Elymus repens. In kind it is in vivo. Conditions: Example 3, Table 6, glyphosate/adjuvant 2:1, 7 weeks after spraying.

As to “Diester between polyethyleneglycol (4.5 EO)-monococo ether monocarboxymethyl ether and N-methyldiethanolamine”, the Biodegradability in data set [1] worked out at 21%.

Substance “Monoester between polyethyleneglycol (4.5 EO)-monococo ether monocarboxymethyl ether and N-methyldiethanolamine” had a Biodegradability in data set [1] of 75%. Besides, the Effect stood at 50% in data set [2] (glyphosate 0.08 kg a.e./ha); 77% in data set [2] (glyphosate 0.15 kg a.e./ha); 95% in data set [2] (glyphosate 0.25 kg a.e./ha); 55% in data set [3] (glyphosate 0.15 kg a.e./ha); 70% in data set [3] (glyphosate 0.25 kg a.e./ha); 92% in data set [3] (glyphosate 0.75 kg a.e./ha). The Effect in data set [4] (glyphosate 0.15 kg a.e./ha) is on record as 37%; in data set [4] (glyphosate 0.25 kg a.e./ha), 83%; in data set [4] (glyphosate 0.75 kg a.e./ha), 98%.

(Values after patent US6747164B2, “Use of amine compounds with improved biodegradability as adjuvants for pesticides and fertilizers” (priority 2000, dated 2004).)
